## Apparent affinities of Ab-14 variants for a coronavirus HR2 peptide

Values reported by Engelhart et al. 2022, doi:10.1038/s41597-022-01779-4 (FLAb copy).

Target peptide (SARS-CoV-2 spike, HR2 region): PDVDLGDISGINAS

The variants keep the light chain, the linker and the frameworks of Ab-14 (scFv order VH, a 15-residue (Gly4Ser)3 linker, VL).
VH: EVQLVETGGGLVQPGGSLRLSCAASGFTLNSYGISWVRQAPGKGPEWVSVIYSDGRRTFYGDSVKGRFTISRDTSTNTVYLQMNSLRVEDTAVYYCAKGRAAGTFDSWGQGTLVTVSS
VL: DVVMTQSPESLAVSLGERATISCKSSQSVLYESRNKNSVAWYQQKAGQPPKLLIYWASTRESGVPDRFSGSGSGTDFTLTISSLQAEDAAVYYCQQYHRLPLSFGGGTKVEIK

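The parent was found by panning a naive human phage display library on the peptide. Variants in AAYL49 differ from the parent at up to three CDR positions; double and triple changes were sampled at random. AlphaSeq pools MATa yeast showing the antibodies with MATalpha yeast showing the peptide. Binding brings cells together so that they mate, and sequencing counts the barcode pairs among the diploids. The ratio of observed to expected reads was calibrated, replicate by replicate, on BCL2-family standards whose Kd was known from biolayer interferometry. Mating was done three times.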

Substitutions are numbered in sequence along the VH above, starting at 1 (not Kabat).
All variants listed here change T28 of the VH, counted from its first residue.
Values are apparent Kd, the geometric mean of the replicates that gave a signal; lower means stronger binding.
"nd" means that the variant was in the library but no mating with the target was seen in any replicate; the authors take this as a sign of poor binding, and no number exists.

The variant F27Q/T28Q/A102W gave 250 nM (1 of 3 replicates; controls 0 of 9). The variant T28R/L29K/Y52R gave nd (0 of 3 replicates; controls 1 of 9). For T28A/Y32N/D62H, the assay gave 23 µM (1 of 3 replicates; controls 0 of 9). With F27E/T28D/S31Y the result was 5.6 nM (3 of 3 replicates; controls 1 of 9). With T28V/G33V/G103Y the result was 16 µM (3 of 3 replicates; controls 3 of 9). The variant T28W/G99W/D106E gave nd (0 of 3 replicates; controls 1 of 9). The variant T28D/K65L/A101Y gave 88 nM (3 of 3 replicates; controls 3 of 9). With G26P/T28L/V50S the result was 8.1 µM (1 of 3 replicates; controls 0 of 9). The variant T28L/D54L showed nd (0 of 3 replicates; controls 0 of 9).

For T28G/L29D/S35Q, the assay gave nd (0 of 3 replicates; controls 1 of 9). The variant T28V/S53R/T104F showed 5.8 µM (1 of 3 replicates; controls 2 of 9). With T28V/Y52H/G103Q the result was nd (0 of 3 replicates; controls 0 of 9). With T28I/S35E/G103S the result was 92 µM (2 of 3 replicates; controls 2 of 9). The variant T28Q/G33F/I34D showed nd (0 of 3 replicates; controls 2 of 9). With T28N the result was 3.7 nM (3 of 3 replicates; controls 1 of 9). With T28I/A102W the result was nd (0 of 3 replicates; controls 0 of 9). The variant T28C/Y52L/G55L showed 2.2 µM (2 of 3 replicates; controls 1 of 9). The variant T28G/F105C showed 84 µM (3 of 3 replicates; controls 3 of 9).

With G26C/T28Y/R100A the result was nd (0 of 3 replicates; controls 1 of 9). The variant T28S/I34H/R56T showed 710 nM (1 of 3 replicates; controls 1 of 9). With T28W/S63C/K65I the result was 13 µM (1 of 3 replicates; controls 1 of 9). The variant T28V/V50T/G61S showed nd (0 of 3 replicates; controls 0 of 9). The variant G26V/T28F/S107Q gave 100 µM (1 of 3 replicates; controls 1 of 9). The variant T28N/S35F/S53M showed nd (0 of 3 replicates; controls 0 of 9). The variant T28E/D54N/D106T showed nd (0 of 3 replicates; controls 0 of 9). For T28A/I34D/G55Q, the assay gave 190 µM (1 of 3 replicates; controls 4 of 9). With F27S/T28Q/T104W the result was 13 µM (2 of 3 replicates; controls 2 of 9).

With T28P/D54R/R100G the result was nd (0 of 3 replicates; controls 2 of 9). The variant T28K/G33C/F105V gave 160 µM (1 of 3 replicates; controls 3 of 9). The variant T28A/L29T/R100P showed 100 µM (3 of 3 replicates; controls 5 of 9). The variant T28C/Y32K/V50Y gave nd (0 of 3 replicates; controls 0 of 9). The variant T28D/S53L/R100T gave 39 µM (3 of 3 replicates; controls 2 of 9). With F27Q/T28L/S63W the result was 17 µM (3 of 3 replicates; controls 5 of 9). With T28Q/K65Y/G103M the result was 2.1 µM (3 of 3 replicates; controls 0 of 9). With T28Y/S31Q/G33S the result was 87 µM (1 of 3 replicates; controls 5 of 9). For T28N/S53I/T58R, the assay gave 1.8 µM (1 of 3 replicates; controls 1 of 9).

The variant T28S/T58E/D62E gave 67 nM (3 of 3 replicates; controls 5 of 9). With T28Q/Y60G/R100F the result was 19 µM (2 of 3 replicates; controls 0 of 9). With T28F/N30V/G99T the result was 4.9 µM (1 of 3 replicates; controls 2 of 9). With T28H/D62K/V64W the result was 46 µM (2 of 3 replicates; controls 6 of 9). With G26Y/T28W/A102I the result was nd (0 of 3 replicates; controls 2 of 9). The variant T28Q/Y32L/V64L showed 41 µM (3 of 3 replicates; controls 4 of 9). The variant T28G/V64Y/S107Q gave 220 nM (2 of 3 replicates; controls 1 of 9). The variant T28P/T58E/S63G showed nd (0 of 3 replicates; controls 0 of 9). The variant T28F/S35G/F59C showed 11 µM (2 of 3 replicates; controls 1 of 9).

The variant F27R/T28P/V50L gave 66 µM (2 of 3 replicates; controls 4 of 9). The variant T28L/F59H/Y60R showed nd (0 of 3 replicates; controls 0 of 9). With T28M/R56A/A102M the result was 94 nM (3 of 3 replicates; controls 2 of 9). The variant T28F/D62S/V64L gave nd (0 of 3 replicates; controls 0 of 9).

The first 4 entries again:

F27Q/T28Q/A102W: 250 nM (1 of 3 replicates; controls 0 of 9).
T28R/L29K/Y52R: nd (0 of 3 replicates; controls 1 of 9).
T28A/Y32N/D62H: 23 µM (1 of 3 replicates; controls 0 of 9).
F27E/T28D/S31Y: 5.6 nM (3 of 3 replicates; controls 1 of 9).

In this assay the parent's reference entry averaged 4.4 nM; its copy inside this library read 13 µM (one replicate of three).
Nonspecific signal, from three strains lacking the peptide, appeared in 15% of pairings of library AAYL49, centred on 11 µM (5% of these signals below 680 nM); values are not corrected for it. The control count says in how many pairings with the empty strains this scFv gave a signal.